From US20050164951A1, “Inhibitors for the soluble epoxide hydrolase” (The Regents of the University of California, priority 2003, published 2005)

By UniProt entry, the sequences of proteins in these tests, tags left out.
UniProt P34914, whole entry: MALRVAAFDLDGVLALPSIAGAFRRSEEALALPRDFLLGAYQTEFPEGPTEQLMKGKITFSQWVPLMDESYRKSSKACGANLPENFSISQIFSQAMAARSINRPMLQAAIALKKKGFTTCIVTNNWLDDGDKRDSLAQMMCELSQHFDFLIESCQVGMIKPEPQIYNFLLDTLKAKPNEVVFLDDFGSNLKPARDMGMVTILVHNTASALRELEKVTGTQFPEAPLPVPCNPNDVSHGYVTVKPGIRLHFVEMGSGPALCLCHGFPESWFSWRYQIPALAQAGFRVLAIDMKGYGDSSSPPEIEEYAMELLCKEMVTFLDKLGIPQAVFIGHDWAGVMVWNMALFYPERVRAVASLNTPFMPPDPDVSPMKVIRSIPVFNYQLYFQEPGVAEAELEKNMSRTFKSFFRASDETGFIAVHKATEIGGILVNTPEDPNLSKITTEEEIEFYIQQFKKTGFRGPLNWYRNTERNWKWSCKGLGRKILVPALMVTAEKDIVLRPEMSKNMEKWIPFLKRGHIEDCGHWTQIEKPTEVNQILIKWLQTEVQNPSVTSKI

molecular target: mouse sEH (Mus musculus, UniProt P34914); test: Inhibition of recombinant mouse sEH, IC50 assay with 4-nitrophenyl-trans-2,3-epoxy-3-phenylpropyl carbonate as substrate; type: biochemical; details: read-out: Mouse sEH IC50; Table 10; unpurified reaction solutions used directly, theoretical concentration 10 mM; means ± SD of three experiments

| IC50 [µM] | Compound |
| --- | --- |
| > 50 | O=C(CCCNC(=O)NC1CCCCC1)N[C@@H](CO)C(=O)O |
| > 50 | CC(C)[C@H](NC(=O)CCCNC(=O)NC1CCCCC1)C(=O)O |
| > 50 | O=C(O)C[C@H](NC(=O)CCCNC(=O)NC1CCCCC1)C(=O)O |
